Experimental data reported in PubChem BioAssay.
Where “and” joins values, the source holds several entries; their conditions need not be identical. Equal entries are not always repeated. Only a part is listed here, and it is no random draw. Some structures have more than one record in an assay (separate samples or runs), and their calls can disagree. Calls of active or inactive are those of the source. Cut-off read from the data, not from the text of the source: active = fold change permeability below about 0.7 or above about 1.3; inactive = in between.

assay: modulators of brain endothelial barrier permeability, primary screen, cell-based, FITC-avidin fluorescence, HTS (AID 1963498); settings: actives lie on both sides; note: test concentration not given here

Row | Compound | fold change permeability
1 | O=C1NC[C@@]2(CN3CCC2CC3)O1 | inactive: 1.1
2 | CN(C(=O)Cc1ccc(Cl)c(Cl)c1)[C@@H]1CC[C@]2(CCCO2)C[C@H]1N1CCCC1 | active: 1.8
3 | CC(C)NC[C@H](O)COc1ccc(CC(N)=O)cc1 | inactive: 1.2
4 | CN(C(=O)Cc1ccccc1)[C@H]1CC[C@@]2(CCCO2)C[C@@H]1N1CCCC1 | active: 0.7
5 | CN1C(C(=O)Nc2ccccn2)=C(O)c2ccccc2S1(=O)=O | inactive: 1.2
6 | CC(Cc1ccc(O)cc1)NCC(O)c1cc(O)cc(O)c1 (stereo not given) | active: 0.7
7 | NC(N)=NC(=O)c1nc(Cl)c(N)nc1N | inactive: 1.1
8 | CN(C(=O)Cc1ccc(Cl)c(Cl)c1)[C@H]1CCCC[C@@H]1N1CCCC1 | active: 1.3
9 | Cn1c(=O)c2[nH]cnc2n(C)c1=O | inactive: 0.9 and active: 0.7
10 | CC(C)NCC(O)COc1ccc(CC(N)=O)cc1 (stereo not given) | inactive: 0.9
